Source: paper PMC9092470, “Understanding p300-transcription factor interactions using sequence variation and hybridization†” (RSC Chemical Biology, 2022)

By UniProt entry, the sequences of proteins in these tests, tags left out. Residues count along the entry.
UniProt Q09472, 330-420: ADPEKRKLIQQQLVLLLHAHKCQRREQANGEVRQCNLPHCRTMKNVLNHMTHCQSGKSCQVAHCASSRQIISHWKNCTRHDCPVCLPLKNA

What was measured:
[1] = molecular target: T1, CITED2224-259 /p300 complex (Homo sapiens, UniProt Q09472); test: Competition ITC: HIF-1α786-826 titrated to preformed CITED2224-259/p300 complex; type: binding; details: titrated to CITED2224-259/p300 complex, treat with caution
T1 construct: GST (N, cleaved yes); made in house; host or cells: p300: E. coli BL21 pLysS (pGEX-4T1-p300); CITED2 peptide: chemical synthesis
Description: Figure S7Apparent KD fits for the competition ITC experiment using a competition interaction model. p300/ligand complexes were prepared by titrating the appropriate ligand first to p300 in the cell using 3-5 µM protein concentration, the titration stopped when it reached close to […]
(Table S5) Then it was titrated with the competitor ligand using 30-60 µM concentration in the syringe, 5 or 10 uL injections with 180-240 s spacing. Background titrations were performed without p300 in the cell and subtracted from the measurements. Apparent KD,app and ΔH app values data were fitted to a competition model (Fig. S17) in SEDPHAT. Error bars represent the estimated integration errors.
(1 picture or pasted object on this page, not shown here) […]
(§1) instrument using 3-5 µM protein in the cell and 40-60 µM ligand in the syringe at 35°C, using 5 µl injections and 180 s spacing between injections, for 40 injections. […] Data were analysed using NITPIC3 and fitted using SEDPHAT4 to a single binding site model (fixed 1:1 stoichiometry), with baseline and incompetent protein fraction as adjustable parameters. 68 % confidence intervals for the fitted values were determined using the automatic confidence interval search implemented in SEDPHAT. […]

[2] = molecular target: T2, p300 (CH1 domain, residues 330–420) (Homo sapiens, UniProt Q09472); test: ITC of expressed HIF-1α, CITED2 and CITIF peptides binding to p300; details: conditions as Fig. S6 (40 mM sodium phosphate, pH 7.5, 100 mM NaCl, 1 mM DTT, 35°C)
T2 construct: GST (N, cleaved yes); made in house; host or cells: E. coli BL21 pLysS (pGEX-4T1-p300)
Description: We hypothesized that it would be possible to enhance the affinity of HIF-1α for p300 by hybridising key regions of both CITED2 and HIF-1α (see later). We first measured the affinity of the parent peptides. A particular difficulty in comparing these peptide sequences is the different length used in different studies.[28,33,35,36] […]
data and fitted thermogram (lower) (40 mM sodium phosphate, pH 7.5 100 mM NaCl, 1 mM DTT buffer using 5 µM protein in the cell and 60 µM ligand in the syringe at 35°C); (b) Thermodynamic signatures for each interaction. […]
Isothermal titration calorimetry
Prior to ITC measurement p300 CH1 was dialysed or run on S75 column in the buffer used for titration, and the same buffer was used to dissolve the pure peptides. Experiments with […]
as §1

[3] = molecular target: T2, p300 (CH1 domain, residues 330–420); test: ITC of chemically synthesized HIF-1α, CITED2 and CITIF peptides binding to p300; details: 35 °C, 40 mM sodium phosphate, pH 7.5, 100 mM NaCl, 1 mM DTT, 5 μM protein in cell, 60 μM ligand in syringe
Description: Raw ITC (upper) data and fitted thermogram (lower) (40 mM sodium phosphate, pH 7.5 100 mM NaCl, 1 mM DTT buffer using 5 μM protein in the cell and 60 μM ligand in the syringe at 35 °C) error bars represent the estimated integration errors; (b) Thermodynamic signatures for each interaction.
Figure S8 (a) Sequences of the truncated CITED2 peptides and isothermal titration […]
µM peptide in the syringe. All measurements were carried out 40 mM sodium phosphate, pH 7.5 100 mM NaCl, 1 mM DTT buffer at 35°C. Error bars represent the estimated integration […]
Table S2 Thermodynamic parameters for shortened CITED2 sequences. 68% confidence intervals for the fitting are shown in brackets. Data fitted to a single binding site model, fixed 1:1 stoichiometry with incompetent protein fraction as an adjustable parameter. […]
Isothermal titration calorimetry […]
as §1

[4] = 68% confidence interval in brackets

CC[C@H](C)[C@H](NC(=O)[C@@H]1CCCN1C(=O)[C@H](C)NC(=O)[C@H](CC(N)=O)NC(=O)[C@@H](NC(=O)[C@H](CCC(=O)O)NC(=O)[C@H](CS)NC(=O)[C@H](CC(=O)O)NC(=O)[C@H](Cc1ccc(O)cc1)NC(=O)[C@H](CO)NC(=O)[C@@H](NC(=O)[C@H](CC(C)C)NC(=O)[C@H](CCC(N)=O)NC(=O)[C@@H]1CCCN1C(=O)[C@H](CC(C)C)NC(=O)CNC(=O)[C@H](CO)NC(=O)[C@H](CCC(=O)O)NC(=O)[C@H](CC(=O)O)NC(=O)[C@H](CCSC)NC(=O)[C@H](CO)NC(C)=O)[C@@H](C)O)C(C)C)C(=O)N[C@@H](CCC(N)=O)C(=O)NCC(=O)N[C@@H](CO)C(=O)N[C@@H](CCCNC(=N)N)C(=O)N[C@@H](CC(N)=O)C(=O)N[C@@H](CC(C)C)C(=O)N[C@@H](CC(C)C)C(=O)N[C@@H](CCC(N)=O)C(=O)NCC(=O)N[C@@H](CCC(=O)O)C(=O)N[C@@H](CCC(=O)O)C(=O)N[C@@H](CC(C)C)C(=O)N[C@@H](CC(C)C)C(=O)N[C@@H](CCCNC(=N)N)C(=O)N[C@@H](C)C(=O)N[C@@H](CC(C)C)C(=O)N[C@@H](CC(=O)O)C(=O)N[C@@H](CCC(N)=O)C(=O)N[C@H](C(=O)N[C@@H](CC(N)=O)C(N)=O)C(C)C [HIF-1α786–826]
ΔHapp, HIF-1α [1]: -22.3 kcal/mol | ΔSapp, HIF-1α [1]: -38.8 cal/mol/K | ΔS, expressed peptides [2]: −73.2 cal mol^−1 K^−1 | ΔH, expressed peptides [2, 4]: -32.7 kcal/mol | ΔS, synthetic peptides [3]: −50 cal mol^−1 K^−1 | ΔH, synthetic peptides [3, 4]: -25.8 kcal/mol
